Assay results: PMC8710044 (Biochemical pharmacology, 2021)

Substrate: Cc1ccc(Cl)c(Nc2ccccc2C(=O)O)c1Cl
Assay: cells, lysate or membranes named
Conditions: other: CYP2C19; metabolite M9, path 4; 95% CI in parentheses; pH 7.4

B1: CYP2C19 (Homo sapiens) (protein)
chain: MDPFVVLVLCLSCLLLLSIWRQSSGRGKLPPGPTPLPVIGNILQIDIKDVSKSLTNLSKIYGPVFTLYFGLERMVVLHGYEVVKEALIDLGEEFSGRGHFPLAERANRGFGIVFSNGKRWKEIRRFSLMTLRNFGMGKRSIEDRVQEEARCLVEELRKTKASPCDPTFILGCAPCNVICSIIFQKRFDYKDQQFLNLMEKLNENIRIVSTPWIQICNNFPTIIDYFPGTHNKLLKNLAFMESDILEKVKEHQESMDINNPRDFIDCFLIKMEKEKQNQQSEFTIENLVITAADLLGAGTETTSTTLRYALLLLLKHPEVTAKVQEEIERVIGRNRSPCMQDRGHMPYTDAVVHEVQRYIDLIPTSLPHAVTCDVKFRNYLIPKGTTILTSLTSVLHDNKEFPNPEMFDPRHFLDEGGNFKKSNYFMPFSAGKRICVGEGLARMELFLFLTFILQNFNLKSLIDPKDLDTTPVVNGFASVPPFYQLCFIPV
  Km: 15.3 µM
